Experimental findings from paper PMC5326799, “Discovery of Compounds that Positively Modulate the High Affinity Choline Transporter” (Frontiers in Molecular Neuroscience, 2017) are described below.

SMILES strings stand for the structures. Entries after “also recorded” stand apart in the source; their conditions may differ.

Assay [1] addresses T1, CHT (Homo sapiens, UniProt Q9GZV3).
T1 sequence (Q9GZV3 1-580): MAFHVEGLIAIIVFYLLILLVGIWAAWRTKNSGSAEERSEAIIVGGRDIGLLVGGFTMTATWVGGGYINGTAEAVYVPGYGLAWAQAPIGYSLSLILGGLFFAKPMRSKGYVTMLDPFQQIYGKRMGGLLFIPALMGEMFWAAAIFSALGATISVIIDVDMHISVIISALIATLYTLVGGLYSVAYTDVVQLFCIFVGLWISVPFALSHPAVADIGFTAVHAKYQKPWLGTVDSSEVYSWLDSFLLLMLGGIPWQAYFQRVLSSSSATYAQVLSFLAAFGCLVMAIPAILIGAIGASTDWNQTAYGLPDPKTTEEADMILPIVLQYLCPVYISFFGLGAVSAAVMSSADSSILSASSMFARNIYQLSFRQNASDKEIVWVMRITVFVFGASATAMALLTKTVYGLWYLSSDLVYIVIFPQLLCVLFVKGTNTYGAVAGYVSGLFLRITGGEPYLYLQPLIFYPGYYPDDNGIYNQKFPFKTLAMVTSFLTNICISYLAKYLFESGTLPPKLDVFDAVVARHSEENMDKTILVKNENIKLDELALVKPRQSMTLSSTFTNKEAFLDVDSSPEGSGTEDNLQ
The note with it: HEK293 CHT-WT4, DMSO negative control, 10 μM STS positive control.

The target in another assay is CHT LV-AA mutant (Homo sapiens, UniProt Q9GZV3, L531A/V532A). The protocol: Uptake of [^3H]Choline (American Radiochemicals; ART 0197; 1,000 Ci/vial; Specific Activity 60–90 Ci/mmol) was measured in HEK cells expressing the high affinity choline transporter (CHT), clone WT4. Cells were plated at 50,000 cells /well in 200 μL culture media on a PDL coated Cytostar-T 96 well plate (Perkin Elmer) 24 h prior to assay. On the day of assay, following two washes and a 30 min pre-incubation at 37°C in 50 μL Na(−) free buffer (0.54 mM KCl, 1.3 mM CaCl2, 0.53 mM MgCl2, 0.4 mM MgSO4, 0.37 mM KH2PO4, 240 mM Sucrose, 4.4 mM Tris-phosphate, 5.5 mM Glycine, 5.6 mM D-Glucose; pH 6.5 with KOH), 25 μL 4X control or test compounds in Na(−) buffer were added to the cells. […] Final DMSO concentration was 0.25%. Following a 30 min incubation at 37°C, 25 μL [^3H]Choline diluted to 320 nM (80 nM final concentration) was added in Na(+) buffer (0.54 mM KCl, 1.3 mM CaCl2, 0.53 mM MgCl2, 0.4 mM MgSO4, 0.37 mM KH2PO4, 138 mM NaCl, 0.28 mM Na2HPO4, 5.5 mM Glycine, 5.6 mM D-Glucose; pH 6.5 with KOH). Plates were sealed with TopSeals (Perkin Elmer) and incubated in darkness for 3 h at room temperature before reading using a Wallac Microbeta, 1 min/well.
A preponderance of literature precedent for measuring high affinity choline uptake (HACU) utilizes a radiometric assay to measure [^3H]Choline transport in preparations.

Assay [2] concerns the target T1, CHT. The experiment in a line: Live cell anti-FLAG immunolabeling of CHT cell surface localization in CHT-WT4 cells. As to conditions: 1 or 10 μM for 1 h, qualitative observations. Type of assay: cell-based. More on the design: expressed in transfected cells; host or cells: HEK-293, lentiviral transduction, single-cell clone CHT-WT4. How it is done:
Media was removed and cells were washed once with HBSS (+/+). 1 μg/mL Anti-FLAG antibody (F3165, Sigma) was diluted in HBSS (+/+) and added to the cellular monolayer for 30 mins. After incubation, cells were washed three times with HBSS (+/+) followed by incubation with 1:5,000 AF488 labeled secondary antibody (LifeTech) diluted in HBSS (+/+) for 30 min. After three washes, cells were fixed with 4% paraformaldehyde in HBSS (+/+) for 15 min. Nuclei were counterstained with the nuclear dye Hoechst. All images were captured and analyzed on an epifluorescent microsope or Cellomics platform.
Thus, understanding compound effects on CHT density and activation state in the synaptic membrane may aid interpretation of the effects on cholinergic neurotransmission. Conventional methods such as cell surface biotinylation present challenges in terms of the requirement of large quantities of cells and low throughput. […] Our CHT overexpression construct contains a FLAG tag on the N-terminus which we sought to utilize with antibody detection in non-permeabilized cells. […] We proceeded to investigate the effect of compound treatment in more detail. Cells were incubated with compounds at 1 or 10 μM for 1 h before immunolabeling and visualization.

The target of assay [3] is T1, CHT. Description: SURFE2R solid supported membrane (SSM) electrophysiology on CHT-WT4 membrane fragments. As to conditions: CHT-WT4 membrane preparations. In kind it is biochemical. The arrangement: expressed in transfected cells; host or cells: HEK-293, lentiviral transduction, single-cell clone CHT-WT4.

Consider `CN[C@@H]1C[C@H]2O[C@@](C)([C@@H]1OC)n1c3ccccc3c3c4c(c5c6ccccc6n2c5c31)C(=O)NC4` [STS, staurosporine, reference compound], for which the “D9-choline uptake % effect 1 μM” value on CHT [1] (1 μM compound) was 48.4%. In addition, the “D9-choline uptake % effect 10 μM” value on CHT [1] (10 μM compound) stood at 87.9%. The “Stimulatory effect on CHT-mediated transport” value at CHT LV-AA mutant is “no apparent effect”. The “Effect on cell surface localization of CHT” value at CHT [2] is “increase in cell surface localization; also recorded: increased cell surface localization”. Also, the “Effect on CHT current (SURFE2R)” value on CHT [3] is “not able to detect any effect; also recorded: Lack of activity”.
